One assay deals with T1, CRF2R (Homo sapiens, UniProt Q13324).
T1 sequence (Q13324 1-411): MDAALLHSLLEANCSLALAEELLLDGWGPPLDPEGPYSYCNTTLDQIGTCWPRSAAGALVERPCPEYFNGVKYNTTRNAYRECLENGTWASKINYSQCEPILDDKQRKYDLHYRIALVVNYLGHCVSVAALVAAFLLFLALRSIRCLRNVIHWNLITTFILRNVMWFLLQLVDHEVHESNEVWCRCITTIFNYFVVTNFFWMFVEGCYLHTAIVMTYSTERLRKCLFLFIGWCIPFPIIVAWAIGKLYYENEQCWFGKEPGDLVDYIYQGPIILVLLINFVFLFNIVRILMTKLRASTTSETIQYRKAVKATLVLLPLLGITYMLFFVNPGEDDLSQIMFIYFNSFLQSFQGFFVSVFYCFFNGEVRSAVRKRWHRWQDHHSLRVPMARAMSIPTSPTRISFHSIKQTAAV
The assay is described as follows: CRF2R agonist activity (EC50 and Emax), called comparative CRF binding. It counts as cell-based. The note with it: CRF2R; for EC50: CRF2R EC50 (nM). The procedure, abridged:
(§1)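 Agonism measured through CRE-linked reporter expression or lysate cAMP after peptide treatment of CRF1R- or CRF2R-expressing cells, compared against vehicle-treated cells; background from a co-expressed non-target CRFR is subtracted.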

In a further assay the target is T2, CRF1R (Homo sapiens, UniProt P34998).
T2 sequence (P34998 24-415): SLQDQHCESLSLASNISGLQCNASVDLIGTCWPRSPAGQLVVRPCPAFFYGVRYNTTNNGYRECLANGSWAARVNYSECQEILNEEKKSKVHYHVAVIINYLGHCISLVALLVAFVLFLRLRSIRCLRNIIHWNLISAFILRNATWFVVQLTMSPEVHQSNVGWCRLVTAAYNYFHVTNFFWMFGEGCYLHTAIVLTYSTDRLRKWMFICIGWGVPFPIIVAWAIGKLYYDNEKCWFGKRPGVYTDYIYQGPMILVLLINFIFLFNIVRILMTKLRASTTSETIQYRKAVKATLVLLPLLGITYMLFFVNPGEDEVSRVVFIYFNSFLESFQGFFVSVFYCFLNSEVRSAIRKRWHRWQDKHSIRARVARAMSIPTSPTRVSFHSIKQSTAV
The assay is described as follows: CRF1R agonist activity (EC50 and Emax), called comparative CRF binding. To be noted: CRF1R; for EC50: CRF1R EC50 (nM). It counts as cell-based. In outline: as §1

A word on the EC50: it is the concentration that produces a half-maximal response. What is called pEC50 is the EC50 on a negative log10 scale, so that one unit is a factor of ten.

pEC50: −log10 of the molar value. Read-outs that look alike come from different tables or passages of the source.

As to `CC[C@H](C)[C@H](NC(=O)[C@@H](NC(=O)[C@H](CC(=O)O)NC(=O)[C@H](CC(C)C)NC(=O)[C@H](CC(C)C)NC(=O)[C@H](CC(C)C)NC(=O)[C@H](C)NC(=O)[C@H](CC(N)=O)NC(=O)[C@H](CC(N)=O)NC(=O)[C@H](C)NC(=O)[C@H](C)NC(=O)[C@H](CCC(N)=O)NC(=O)[C@H](CCC(N)=O)NC(=O)[C@H](CCCCN)NC(=O)[C@H](CCC(=O)O)NC(=O)[C@H](CCCCN)NC(=O)[C@H](CCC(=O)O)NC(=O)[C@H](CCC(N)=O)NC(=O)[C@H](CCCCN)NC(=O)[C@H](CCC(=O)O)NC(=O)[C@@H](NC(=O)[C@H](CCC(=O)O)NC(=O)[C@@H](NC(=O)[C@H](CCSC)NC(=O)[C@H](CCCCN)NC(=O)[C@H](CCCNC(=N)N)NC(=O)[C@H](CC(C)C)NC(=O)[C@H](CC(C)C)NC(=O)[C@H](Cc1c[nH]c2ccccc12)NC(=O)[C@H](Cc1ccc(O)cc1)NC(=O)[C@@H]1CCCN1C(=O)[C@H](CC(C)C)NC(=O)[C@H](CC(=O)O)NC(=O)[C@@H](NC(=O)[C@H](CO)NC(=O)[C@@H](NC(=O)[C@@H]1CCCN1C(=O)[C@@H]1CCCN1C(=O)CNC(=O)[C@@H]1CCC(=O)N1)[C@@H](C)CC)[C@@H](C)CC)[C@@H](C)CC)[C@@H](C)CC)[C@@H](C)O)C(N)=O` [compound 310], the results for the concentration for a half-maximal effect (EC50) at CRF2R and on CRF1R were 8.7 nM and at least 1000 nM, respectively.

As to `CC[C@H](C)[C@H](NC(=O)[C@H](CCC(=O)O)NC(=O)[C@@H](NC(=O)[C@H](CCSC)NC(=O)[C@H](CCCCN)NC(=O)[C@H](CCCNC(=N)N)NC(=O)[C@H](CC(C)C)NC(=O)[C@H](CC(C)C)NC(=O)[C@H](Cc1c[nH]cn1)NC(=O)[C@H](Cc1ccc(O)cc1)NC(=O)[C@@H]1CCCN1C(=O)[C@H](CC(C)C)NC(=O)[C@H](CC(=O)O)NC(=O)[C@@H](NC(=O)[C@H](CO)NC(=O)[C@@H](NC(=O)[C@@H]1CCCN1C(=O)[C@@H]1CCCN1C(=O)CNC(=O)[C@@H]1CCC(=O)N1)[C@@H](C)CC)[C@@H](C)CC)[C@@H](C)CC)C(=O)N[C@@H](CCC(=O)O)C(=O)N[C@@H](CCCCN)C(=O)N[C@@H](CCC(N)=O)C(=O)N[C@@H](CCC(=O)O)C(=O)N[C@@H](CCCCN)C(=O)N[C@@H](CCC(=O)O)C(=O)N[C@@H](CCCCN)C(=O)N[C@@H](CCC(N)=O)C(=O)N[C@@H](CCC(N)=O)C(=O)N[C@@H](C)C(=O)N[C@@H](C)C(=O)N[C@@H](CC(N)=O)C(=O)N[C@@H](CC(N)=O)C(=O)N[C@@H](C)C(=O)N[C@@H](CC(C)C)C(=O)N[C@@H](CC(C)C)C(=O)N[C@@H](CC(C)C)C(=O)N[C@@H](C)C(=O)N[C@H](C(N)=O)[C@@H](C)O` [compound 315], the EC50 on CRF2R is 9.35 nM; on CRF1R it was 454 nM.

As for `CC[C@H](C)[C@H](NC(=O)[C@@H](NC(=O)[C@H](CC(=O)O)NC(=O)[C@H](CC(C)C)NC(=O)[C@H](CC(C)C)NC(=O)[C@H](CC(C)C)NC(=O)[C@H](C)NC(=O)[C@H](CC(N)=O)NC(=O)[C@H](CC(N)=O)NC(=O)[C@H](C)NC(=O)[C@H](C)NC(=O)[C@H](CCC(N)=O)NC(=O)[C@H](CCC(N)=O)NC(=O)[C@H](CCCCN)NC(=O)[C@H](CCC(=O)O)NC(=O)[C@H](CCCCN)NC(=O)[C@H](CCC(=O)O)NC(=O)[C@H](CCC(N)=O)NC(=O)[C@H](CCCCN)NC(=O)[C@H](CCC(=O)O)NC(=O)[C@@H](NC(=O)[C@H](CCC(=O)O)NC(=O)[C@@H](NC(=O)[C@@H](NC(=O)[C@H](CCCCN)NC(=O)[C@H](CCCNC(=N)N)NC(=O)[C@H](CC(C)C)NC(=O)[C@H](CC(C)C)NC(=O)[C@H](Cc1ccccc1)NC(=O)[C@H](Cc1ccccc1)NC(=O)[C@@H]1CCCN1C(=O)[C@H](CC(C)C)NC(=O)[C@H](CC(=O)O)NC(=O)[C@@H](NC(=O)[C@H](CO)NC(=O)[C@@H](NC(=O)[C@@H]1CCCN1C(=O)[C@@H]1CCCN1C(=O)CNC(=O)[C@@H]1CCC(=O)N1)[C@@H](C)CC)[C@@H](C)CC)C(C)C)[C@@H](C)CC)[C@@H](C)CC)[C@@H](C)O)C(N)=O` [compound 316], the EC50 at CRF2R amounted to 10.2 nM; at CRF1R it was 221 nM.

As for `CC[C@H](C)[C@H](NC(=O)[C@@H](NC(=O)[C@H](C)NC(=O)[C@H](CC(C)C)NC(=O)[C@H](CC(C)C)NC(=O)[C@H](CC(C)C)NC(=O)[C@H](C)NC(=O)[C@H](CC(N)=O)NC(=O)[C@H](CC(N)=O)NC(=O)[C@H](C)NC(=O)[C@H](C)NC(=O)[C@H](CCC(N)=O)NC(=O)[C@H](CCC(N)=O)NC(=O)[C@H](CCCCN)NC(=O)[C@H](CCC(=O)O)NC(=O)[C@H](CCCCN)NC(=O)[C@H](CCC(=O)O)NC(=O)[C@H](CCC(N)=O)NC(=O)[C@H](CCCCN)NC(=O)[C@H](CCC(=O)O)NC(=O)[C@@H](NC(=O)[C@H](CCC(=O)O)NC(=O)[C@@H](NC(=O)[C@H](CCSC)NC(=O)[C@H](CCCCN)NC(=O)[C@H](CCCNC(=N)N)NC(=O)[C@H](CC(C)C)NC(=O)[C@H](CC(C)C)NC(=O)[C@H](Cc1ccccc1)NC(=O)[C@H](Cc1ccccc1)NC(=O)[C@@H]1CCCN1C(=O)[C@H](CC(C)C)NC(=O)[C@H](CC(=O)O)NC(=O)[C@@H](NC(=O)[C@H](CO)NC(=O)[C@@H](NC(=O)[C@@H]1CCCN1C(=O)[C@@H]1CCCN1C(=O)CNC(=O)[C@@H]1CCC(=O)N1)[C@@H](C)CC)[C@@H](C)CC)[C@@H](C)CC)[C@@H](C)CC)[C@@H](C)O)C(N)=O` [compound 319], the EC50 came to 8.5 nM on CRF2R and 106 nM on CRF1R.

For `CC[C@H](C)[C@H](N)C(=O)N[C@H](C(=O)N[C@@H](CC(C)C)C(=O)N[C@@H](CO)C(=O)N[C@@H](CC(C)C)C(=O)N[C@@H](CC(=O)O)C(=O)N[C@H](C(=O)N1CCC[C@H]1C(=O)N[C@H](C(=O)NCC(=O)N[C@@H](CC(C)C)C(=O)N[C@@H](CC(C)C)C(=O)N[C@@H](CCC(N)=O)C(=O)N[C@H](C(=O)N[C@@H](CC(C)C)C(=O)N[C@@H](CC(C)C)C(=O)N[C@@H](CCC(=O)O)C(=O)N[C@@H](CCC(N)=O)C(=O)N[C@@H](C)C(=O)N[C@@H](CCCNC(=N)N)C(=O)N[C@@H](C)C(=O)N[C@@H](CCCNC(=N)N)C(=O)N[C@@H](C)C(=O)N[C@@H](C)C(=O)N[C@@H](CCCNC(=N)N)C(=O)N[C@@H](CCC(=O)O)C(=O)N[C@@H](CCC(N)=O)C(=O)N[C@@H](C)C(=O)N[C@H](C(=O)N[C@H](C(=O)N[C@@H](CC(N)=O)C(=O)N[C@@H](C)C(=O)N[C@@H](CCCNC(=N)N)C(=O)N[C@H](C(=O)N[C@@H](CC(C)C)C(=O)N[C@@H](C)C(=O)N[C@@H](CCCNC(=N)N)C(=O)N[C@H](C(N)=O)C(C)C)[C@@H](C)CC)[C@@H](C)O)[C@@H](C)O)[C@@H](C)CC)[C@@H](C)CC)C(C)C)C(C)C` [compound 354], the negative-log EC50 (pEC50) was 8.19 on CRF2R (read-out: CRF2R EC50) and at most 6.00 on CRF1R (read-out: CRF1R EC50).

As to `CC[C@H](C)[C@H](NC(=O)[C@@H](NC(=O)[C@H](C)NC(=O)[C@H](CC(C)C)NC(=O)[C@H](CC(C)C)NC(=O)[C@H](CC(C)C)NC(=O)[C@H](C)NC(=O)[C@H](CC(N)=O)NC(=O)[C@H](CC(N)=O)NC(=O)[C@H](C)NC(=O)[C@H](C)NC(=O)[C@H](CCC(N)=O)NC(=O)[C@H](CCC(N)=O)NC(=O)[C@H](CCCCN)NC(=O)[C@H](CCC(=O)O)NC(=O)[C@H](CCCCN)NC(=O)[C@H](CCC(=O)O)NC(=O)[C@H](CCC(N)=O)NC(=O)[C@H](CCCCN)NC(=O)[C@H](CCC(=O)O)NC(=O)[C@@H](NC(=O)[C@H](CCC(=O)O)NC(=O)[C@@H](NC(=O)[C@H](CC(C)C)NC(=O)[C@H](CCCCN)NC(=O)[C@H](CCCNC(=N)N)NC(=O)[C@H](CC(C)C)NC(=O)[C@H](CC(C)C)NC(=O)[C@H](CCC(N)=O)NC(=O)[C@H](Cc1ccccc1)NC(=O)[C@@H]1CCCN1C(=O)[C@H](CC(C)C)NC(=O)[C@H](CC(=O)O)NC(=O)[C@@H](NC(=O)[C@H](CO)NC(=O)[C@@H](NC(=O)[C@@H]1CCCN1C(=O)[C@@H]1CCCN1C(=O)CNC(=O)[C@@H]1CCC(=O)N1)[C@@H](C)CC)[C@@H](C)CC)[C@@H](C)CC)[C@@H](C)CC)[C@@H](C)O)C(N)=O` [compound 357], the results for the 50% effective concentration (EC50) at CRF2R and at CRF1R were 6.44 nM and 331 nM, respectively.

Values taken from patent US7632933B2, “Corticotropin releasing factor 2 receptor agonists” (priority 2002, dated 2009).
